# Assay results reported in article PMC5997768 (2018).
# Experiments:
# healthy rats [1] = details: rat, in vivo
# healthy rats [2] = details: rat, in vivo; remark: listed apart in the source
structure (smiles),measurement,setting,value
CN1CC[C@]23c4c5ccc(O)c4O[C@H]2[C@@H](O)C=C[C@H]3[C@H]1C5 [Morphine],Heart rate,healthy rats [1],impaired
same,Respiratory rate,healthy rats [1],transiently elevated
same,Decreased locomotor activity at later time points,healthy rats [2],not seen
same,Locomotor activity at 5 min after injection vs vehicle,healthy rats [2]; sc,significantly decreased locomotor activity
